Data on one compound can be found in US20160303147A1 (priority 2007, published 2016).

This data set in a line: Pharmacokinetics in mouse and rabbit after CMX001. Particulars: in vivo; Mouse-Rabbit, dose 2 mg/kg CMX001 (calculated from mouse doses 2 and 10, rabbit doses 5 and 10 mg/kg); analyte = label. From the text: Table 3 illustrates the PK comparison of CMX 001 with CMX 021 and CMX 064 for mouse, rabbit and human.

`CCCCCCCCCCCCCCCCOCCCOP(=O)(O)CO[C@H](CO)Cn1ccc(N)nc1=O` [CMX001]: the Cmax (usually the peak of the concentration-time curve) was 7.9 to 18 ng/mL.
